Legend:
Toxicity (Irwin's test) = type: in vivo; settings: mice, intraperitoneal
Experimental: The toxicity of the c:xspounds of the invention has been determined on male NMRI mice by means of the Irwin's test (S. IRWIN, Psychopharmacologia,13,(1968),222-257). Progressive doses of the compound to be tested are administered intraperitoneally to groups of three mice until the lethal dose is reached (dose which causes the death of two animals out of three within 48 hours).

[1] = tested on: amnesia induced by scopolamine; experiment: Multiple-trial passive avoidance: mnemic retention, amnesia induced by scopolamine; type: in vivo, male Sprague-Dawley rats; settings: rats, active dose against the amnesing effect of scopolamine
Experimental: 4. Multiple-trial passive avoidance. The compounds of the present invention have been studied with the aim of
Columns 3 and 4 show the results obtained in the test used to evaluate the learning. The figures indicate the average number of trials needed for a control animal (group 1) or an animal treated (group 2) with the compound to learn to remain on the rubber mat for 180 seconds in order to avoid the electric shock. The results were analyzed by the Student test.

## CNC(=O)Oc1ccc2c(c1)[C@]1(C)CCN(C)[C@@H]1N2C [physostigmine, reference compound]
Toxicity (Irwin's test)
  Lethal dose (death of two animals out of three within 48 hours): 0.82 mg/kg
[1]
  active dose relative to side effects and toxic dose: at a dose which has side effects and is very close to the toxic dose

Source: US4956367A, “2-amino-4-morpholino-6-propyl-1,3,5-triazines” (U C B S.A., priority 1988, dated 1990)
